{"source": "patent US20140234345A1", "about": "“NOVEL ANTI-CANCER ISOCARBOSTYRIL ALKALOID CONJUGATES” (priority 2011, published 2014)", "origin": "cited, not measured here", "conditions": "9 consecutive days given intravenously; cited from earlier work"}
{"substance": "d-alpha-tocopheryl polyethylene glycol 1000 succinate [Vitamin E]", "values": [{"measurement": "dose well tolerated in humans", "result": "up to 2.3 g m^−2"}]}
